This is an account of results in US20240216444A1, “DESIGNED BACTERIAL COMPOSITIONS” (Seres Therapeutics, Inc., priority 2015, published 2024).

The test system of the series is bile salt hydrolase (BSH) activity on conjugated bile acids. Briefly: LC-MS screen for bile salt hydrolase (BSH) activity.

For Clostridium glycolicum, the “BSH activity on gCDCA by LC-MS” value is reported as “does retain BSH activity”.
